From PMC3894963, “Expression and Functional Characterization of Membrane-Integrated Mammalian Corticotropin Releasing Factor Receptors 1 and 2 in Escherichia coli” (PLoS ONE, 2014)

The chains behind the UniProt entries cited, without tags or fusion partners. Residues count along the entry.
UniProt Q60748, 25-431 isoform Q60748-2: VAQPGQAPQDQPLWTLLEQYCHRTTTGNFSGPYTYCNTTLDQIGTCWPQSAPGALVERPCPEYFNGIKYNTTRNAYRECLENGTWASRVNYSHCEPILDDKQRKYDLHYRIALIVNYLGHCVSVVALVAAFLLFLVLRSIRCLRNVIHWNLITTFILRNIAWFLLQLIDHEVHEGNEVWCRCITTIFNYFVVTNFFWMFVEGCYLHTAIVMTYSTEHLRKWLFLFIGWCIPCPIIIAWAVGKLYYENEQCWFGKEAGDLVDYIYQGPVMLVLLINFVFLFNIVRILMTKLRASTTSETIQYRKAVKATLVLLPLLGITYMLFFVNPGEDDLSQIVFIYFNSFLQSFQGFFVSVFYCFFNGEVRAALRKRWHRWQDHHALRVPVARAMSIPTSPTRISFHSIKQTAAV

Target: T1, mCRFR2β (Mus musculus, UniProt Q60748)
T1 construct: mCRFR2β(Val25-C-term) - PhoA; made in house; host or cells: E. coli (membrane fraction)
Experiment: Competitive displacement of labeled astressin, mCRFR2β in E. coli membranes
Conditions: read-out: Inhibitory binding constant (Ki)
Description: The incubation was performed at room temp for 90-120 min, at which time the plates were aspirated and each well was washed with 2×100 μl assay buffer, dried and counted in a γ-counter. Each assay included at least triplicate wells for each concentration, and the assays were repeated at least twice (except where indicated). […] The saturation and competitive binding experiments are analyzed by non-linear regression with the GraphPad Prism program (www.graphpad.com) assuming binding to a single site. Specifically, for saturation binding experiments, binding is determined as a function of increasing concentrations of radioligand. The equation used is y = {(Bmax)^.[radioligand]}/{Kd+[radioligand]}, where y = the specific binding (i.e., total binding-non-specific binding). Competitive binding experiments use a constant concentration of radioligand together with increasing concentrations of competitor. […] Because [radioligand] is <Kd, the Ki = EC50. For multiple determinations, Log (EC50) values were averaged to calculate the values in Table 1. […] In Table 1, the inhibition constant (Ki) values are shown together with the standard error and ranges, calculated assuming log normal distribution.

SMILES: CC[C@H](C)[C@H](NC(=O)[C@H](CCC(N)=O)NC(=O)[C@H](C)NC(=O)[C@H](CC(N)=O)NC(=O)[C@@H](NC(=O)[C@H](C)NC(=O)[C@H](C)NC(=O)[C@H](CCC(N)=O)NC(=O)[C@H](CC(N)=O)NC(=O)[C@H](CCCNC(=N)N)NC(=O)[C@H](C)NC(=O)[C@H](C)NC(=O)[C@H](CCCCN)NC(=O)[C@H](Cc1ccc(O)cc1)NC(=O)[C@H](CCCNC(=N)N)NC(=O)[C@H](C)NC(=O)[C@H](CCC(N)=O)NC(=O)[C@H](CCC(=O)O)NC(=O)[C@H](CC(C)C)NC(=O)[C@H](CC(C)C)NC(=O)[C@@H](NC(=O)[C@H](CCCNC(=N)N)NC(=O)[C@H](CC(C)C)NC(=O)[C@H](CC(C)C)NC(=O)CNC(=O)[C@@H](NC(=O)[C@@H]1CCCN1C(=O)[C@@H](NC(=O)[C@H](CC(=O)O)NC(=O)[C@H](CC(C)C)NC(=O)[C@H](CO)NC(=O)[C@H](CC(C)C)NC(=O)[C@@H](NC(=O)[C@@H](N)C(C)C)[C@@H](C)CC)C(C)C)[C@@H](C)CC)[C@@H](C)CC)[C@@H](C)O)C(=O)N[C@@H](CC(C)C)C(=O)N[C@@H](C)C(=O)N[C@@H](Cc1c[nH]cn1)C(=O)N[C@H](C(N)=O)C(C)C [mUcn2]
- Ki: 17.7 nM
